## Membrane permeability of cyclic peptides

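Lipid, pH, incubation time, direction and concentration are not recorded in the data file. The list need not hold all peptides of the study. Entries at the database's floor value (log10 P of -10) are not listed.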

PAMPA measures passive passage through an artificial lipid membrane.
Permeability is in 10^-6 cm/s, converted from the database's log10 values; higher is more permeable.

| SMILES | PAMPA (10^-6 cm/s) |
|---|---|
| CC(C)C[C@@H]1NC(=O)[C@H](CC(C)C)N(C)C(=O)C[C@H](Cc2ccccc2)NC(=O)[C@H](Cc2ccccc2)NC(=O)[C@H](CC(C)C)N(C)C(=O)[C@H]2CCCN2C1=O | 4.9 |
| CC(C)C[C@H]1NC(=O)CN(Cc2ccccc2)C(=O)[C@H](C)N(C)C(=O)[C@@H]2CCCN2C(=O)[C@H](Cc2ccccc2)NC(=O)[C@H](CC(C)C)N(C)C(=O)[C@@H]2CCCN2C1=O | 6.8 |
| CC(C)C[C@@H]1NC(=O)[C@@H](C)N(C)C(=O)[C@H](Cc2ccccc2)NC(=O)[C@H](CC(C)C)N(C)C(=O)[C@@H]2CCCN2C(=O)CN(Cc2ccccc2)C1=O | 8.5 |
| CC(C)C[C@@H]1NC(=O)C[C@H](Cc2ccccc2)NC(=O)[C@H]2CCCN2C(=O)[C@H](Cc2ccccc2)NC(=O)[C@H](CC(C)C)NC(=O)[C@H]2CCCN2C(=O)C[C@H](Cc2ccccc2)NC1=O | 0.72 |
| CC(C)C[C@H]1NC(=O)[C@H]2CCCN2C(=O)C[C@H](Cc2ccccc2)NC(=O)[C@H](CC(C)C)N(C)C(=O)[C@@H](C)NC(=O)[C@H]2CCCN2C(=O)[C@H](Cc2ccccc2)NC1=O | 1.7 |
| CC(C)C[C@@H]1NC(=O)[C@@H](CC(C)C)NC(=O)C[C@H](Cc2ccccc2)NC(=O)[C@H]2CCCN2C(=O)[C@H](Cc2ccccc2)NC(=O)[C@@H](CC(C)C)NC(=O)[C@@H]2CCCN2C1=O | 0.93 |
| CC(C)C[C@@H]1NC(=O)[C@@H]2CCCN2C(=O)CN(Cc2ccccc2)C(=O)[C@@H](CC(C)C)N(C)C(=O)[C@H](C)N(C)C(=O)[C@H]2CCCN2C(=O)[C@H](Cc2ccccc2)NC1=O | 2.4 |
| CC(C)C[C@@H]1NC(=O)[C@@H]2CCCN2C(=O)[C@H](CC(C)C)NC(=O)[C@H](CC(C)C)N(C)C(=O)[C@@H](C)NC(=O)[C@H](Cc2ccccc2)NC1=O | 0.62 |
| CC(C)C[C@@H]1C(=O)N[C@@H](Cc2ccccc2)C(=O)N2CCC[C@H]2C(=O)N[C@H](C)C(=O)N(C)[C@@H](CC(C)C)C(=O)N(Cc2ccccc2)CC(=O)N2CCC[C@H]2C(=O)N1C | 1.3 |
| CC(C)C[C@@H]1NC(=O)[C@@H](CC(C)C)N(C)C(=O)C[C@H](Cc2ccccc2)NC(=O)[C@H]2CCCN2C(=O)[C@H](Cc2ccccc2)NC(=O)[C@@H](CC(C)C)NC(=O)[C@H]2CCCN2C1=O | 1.7 |
| CC(C)C[C@H]1NC(=O)[C@H](C)NC(=O)[C@H]2CCCN2C(=O)[C@H](Cc2ccccc2)NC(=O)CN(Cc2ccccc2)C(=O)[C@H]2CCCN2C(=O)[C@@H](CC(C)C)NC1=O | 0.21 |
| CCCN1CC(=O)N(C)[C@H](CC(C)C)C(=O)N(C)[C@H](CC(C)C)C(=O)N2CCC[C@H]2C(=O)N[C@H](CC(C)C)C(=O)N[C@@H](Cc2ccccc2)C(=O)N2CCC[C@@H]2C1=O | 1.5 |
| CC(C)C[C@@H]1C(=O)N(Cc2ccccc2)CC(=O)N2CCC[C@@H]2C(=O)N[C@H](CC(C)C)C(=O)N[C@@H](Cc2ccccc2)C(=O)N2CCC[C@@H]2C(=O)N(C)[C@@H](C)C(=O)N1C | 2 |
| CC(C)C[C@@H]1NC(=O)[C@H](C)N(C)C(=O)[C@H](Cc2ccccc2)NC(=O)[C@@H](CC(C)C)N(C)C(=O)[C@@H]2CCCN2C(=O)[C@H](CC(C)C)NC1=O | 7.8 |
| CC(C)C[C@H]1NC(=O)[C@H](C)N(C)C(=O)[C@H](Cc2ccccc2)NC(=O)CN(Cc2ccccc2)C(=O)[C@@H]2CCCN2C(=O)[C@@H](CC(C)C)NC1=O | 7.8 |
| CCCN1CC(=O)N[C@@H](CC(C)C)C(=O)N(Cc2ccccc2)CC(=O)N2CCC[C@H]2C(=O)N[C@@H](CC(C)C)C(=O)N[C@@H](Cc2ccccc2)C(=O)N2CCC[C@@H]2C1=O | 1.7 |
| CC(C)C[C@H]1NC(=O)[C@@H](C)N(C)C(=O)[C@@H]2CCCN2C(=O)[C@H](Cc2ccccc2)NC(=O)CN(Cc2ccccc2)C(=O)[C@@H]2CCCN2C(=O)[C@@H](CC(C)C)NC1=O | 1.1 |
| CC(C)C[C@@H]1NC(=O)[C@H]2CCCN2C(=O)[C@H](CC(C)C)N(C)C(=O)[C@@H](CC(C)C)NC(=O)[C@H](C)N(C)C(=O)[C@@H]2CCCN2C(=O)[C@H](Cc2ccccc2)NC1=O | 0.79 |

Extract of 2 entries:

| SMILES | PAMPA (10^-6 cm/s) |
|---|---|
| CC(C)C[C@@H]1NC(=O)[C@@H]2CCCN2C(=O)[C@H](CC(C)C)NC(=O)[C@H](CC(C)C)N(C)C(=O)[C@@H](C)NC(=O)[C@H](Cc2ccccc2)NC1=O | 0.62 |
| CC(C)C[C@H]1NC(=O)[C@H]2CCCN2C(=O)C[C@H](Cc2ccccc2)NC(=O)[C@H](CC(C)C)N(C)C(=O)[C@@H](C)NC(=O)[C@H]2CCCN2C(=O)[C@H](Cc2ccccc2)NC1=O | 1.7 |

Collected by the curators of CycPeptMPDB (Li et al. 2023) from Townsend et al. 2020, doi:10.26434/chemrxiv.13335941.v1.